# AlphaSeq binding of Ab-14 heavy chain variants to a spike HR2 peptide

Binding partner: SARS-CoV-2 spike HR2 peptide, sequence PDVDLGDISGINAS.

Parent scFv Ab-14: VH joined to VL by three GGGGS repeats. Changes lie in the heavy chain CDRs alone.
VH: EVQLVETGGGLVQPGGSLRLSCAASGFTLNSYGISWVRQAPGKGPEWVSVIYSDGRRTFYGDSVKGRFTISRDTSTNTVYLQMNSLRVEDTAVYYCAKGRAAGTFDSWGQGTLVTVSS
VL: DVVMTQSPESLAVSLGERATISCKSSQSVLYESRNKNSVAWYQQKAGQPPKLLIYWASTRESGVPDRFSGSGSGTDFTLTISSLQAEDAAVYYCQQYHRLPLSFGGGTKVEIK

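The parent was found by panning a naive human phage display library on the peptide. In library AAYL49, one, two or three CDR residues were substituted; doubles and triples were drawn at random. The assay is AlphaSeq: two haploid yeast populations carry antibody and antigen on their surface. Binding brings cells together so that they mate, and sequencing counts the barcode pairs among the diploids. Each replicate has its own calibration line, from reference interactions of the BCL2 family. Mating was done three times.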

Changes read parent residue, position, new residue, counted from the first residue of the VH shown.
The read-out is the apparent dissociation constant on a log10 scale (nM): the lower, the stronger.
"ND" marks a missing value. The strain was present, yet no cells mated with the target were sequenced in that replicate, which points to weak or no binding.
Three control strains display no target. For library AAYL49, 15% of the pairings with them gave a signal, with a median of 4.06 and one signal in twenty below 2.83, so weak values seen in few replicates may be background. The control count says in how many pairings with the empty strains this scFv gave a signal, with their mean in brackets.

changes	replicates, log10 nM	empty controls
T28R	0.69 1.05 1.09	1 of 9 (4.25)
S35M+S53D+K65N	ND 3.52 5.24	6 of 9 (4.82)
G55I+T58Y+S63T	ND ND ND	1 of 9 (4.83)
F27R+R56E	ND ND ND	0 of 9
G26T+A101M+S107W	2.14 ND 3.02	0 of 9
G33F+G55R+G103S	ND 4.01 ND	3 of 9 (4.11)
Y60V+A101L+T104Q	2.90 2.99 3.21	0 of 9
Y32D+K65T+T104R	ND ND 4.79	2 of 9 (3.85)
G26C+D106Q+S107H	3.75 3.43 2.97	6 of 9 (4.30)
T58F+K65V	2.90 2.39 3.60	1 of 9 (3.24)
S35K+D62S	ND ND ND	2 of 9 (4.72)
S31M+R57T+V64Q	4.31 ND ND	2 of 9 (3.41)
D54V+D62E+K65V	ND ND ND	0 of 9
G26S+F27Y+I34M	3.28 3.55 4.72	0 of 9
S31A+G33L+K65V	ND ND ND	1 of 9 (3.38)
V50T+A102C	ND ND ND	0 of 9
F27R+T28P+V50L	5.84 3.80 ND	4 of 9 (4.48)
T28P+G61I+F105I	1.40 2.05 2.36	0 of 9
G26A+R57T+F105D	4.29 ND 3.32	1 of 9 (3.10)
R57N+V64F+A102I	ND ND ND	2 of 9 (3.12)
S35E+G99I+S107R	ND ND ND	0 of 9
R56P+Y60N+R100K	ND ND ND	1 of 9 (2.42)
S31E+D62H+F105L	1.17 1.35 1.25	2 of 9 (4.16)
Y52I+R57P+G61Q	ND ND ND	1 of 9 (3.55)
L29A+S53H+S107W	3.88 3.59 ND	0 of 9
T28F+G33D+F59V	ND ND ND	0 of 9
Y52Q	ND ND ND	0 of 9
Y32K+R57N+A101R	4.13 ND ND	0 of 9
S31K+Y60C+G99S	5.28 4.37 5.28	5 of 9 (4.55)
F27A+S63P	0.61 0.94 1.05	0 of 9
V50T+G61T+F105D	ND ND 5.00	1 of 9 (2.98)
T58P	ND ND 5.17	3 of 9 (4.34)
S31T	1.90 1.68 1.87	4 of 9 (4.28)
F27H+R57P+F105D	ND ND ND	1 of 9 (4.42)
L29W+R57E+D62P	ND ND 4.19	2 of 9 (4.90)
F59C+G99K+R100N	ND 3.55 ND	2 of 9 (3.96)
G33M+S107G	5.82 ND ND	3 of 9 (5.25)
I34L+R57C	ND ND ND	1 of 9 (3.09)
G33E+S107T	ND ND ND	2 of 9 (4.73)
T28W+T58S+R100C	ND ND ND	0 of 9
F27Y+I51W+S63H	ND 3.65 3.81	3 of 9 (4.33)
L29G+F59L+D106K	ND ND ND	0 of 9
Y32M+G99H+A101Q	3.82 ND ND	1 of 9 (3.51)
N30T+R56E	ND ND ND	0 of 9
G33H+G55R+D106V	5.11 ND ND	2 of 9 (3.08)
S63L+K65P+S107L	5.77 4.12 ND	2 of 9 (4.70)
Y32E+S53W+K65C	ND ND ND	0 of 9
I34G+V50G+S63R	ND ND 5.06	0 of 9
Y32A+F59H+A101G	4.64 ND ND	1 of 9 (5.87)
L29V+N30T+F105N	5.25 3.80 3.45	3 of 9 (5.09)

Top 4 of the variants detected in all replicates, tightest first:

changes,"replicates, log10 nM",empty controls
F27A+S63P,0.61 0.94 1.05,0 of 9
T28R,0.69 1.05 1.09,1 of 9 (4.25)
S31E+D62H+F105L,1.17 1.35 1.25,2 of 9 (4.16)
S31T,1.90 1.68 1.87,4 of 9 (4.28)

Source: Engelhart et al. 2022 (doi:10.1038/s41597-022-01779-4), MIT Lincoln Laboratory and A-Alpha Bio; data file from the FLAb repository.